Measured values taken from patent US20090227673A1, “Method and Composition for the Treatment of Parkinson's Disease” (priority 2006, published 2009).

Molecular target: T1, human COMT (Homo sapiens, UniProt P21964)
T1 construct: from tissue; host or cells: human liver cytosol (preparations HL4C, HL9C, HL8C)
T1 sequence (P21964 1-221 isoform P21964-2): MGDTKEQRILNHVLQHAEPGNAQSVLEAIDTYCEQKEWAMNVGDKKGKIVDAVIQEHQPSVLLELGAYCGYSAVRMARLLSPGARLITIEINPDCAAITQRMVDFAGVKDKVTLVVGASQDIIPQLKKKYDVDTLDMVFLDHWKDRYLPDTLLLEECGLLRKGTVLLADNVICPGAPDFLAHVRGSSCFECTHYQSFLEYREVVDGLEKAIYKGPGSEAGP
Assay: Inhibition of human liver COMT-mediated o-methylation of catecholamines (human liver cytosol, [3H-methyl]AdoMet)
Type: biochemical
Settings: read-out: IC50, inhibition of human COMT-mediated o-methylation of L-DOPA and other catecholamines; 10 μM catecholamine substrate, 250 μM AdoMet, 0.25 mg/mL human liver cytosolic protein, 37° C., 10 min, pH 7.4

O=C(O[C@@H]1Cc2c(O)cc(O)cc2O[C@@H]1c1cc(O)c(O)c(O)c1)c1cc(O)c(O)c(O)c1 [EGCG, (−) epigallocatechin-3-o-gallate catechin]
IC50: 20 to 70 nM
